Data: paper PMC5782818 (Bioorganic & medicinal chemistry letters, 2017)
Counter-ions that a name gives are not always drawn.

Chains of the proteins cited; added tags and fusions are not shown. Lines headed by an entry give the natural chain unless they say otherwise; changes in a name come on top.
UniProt Q12809: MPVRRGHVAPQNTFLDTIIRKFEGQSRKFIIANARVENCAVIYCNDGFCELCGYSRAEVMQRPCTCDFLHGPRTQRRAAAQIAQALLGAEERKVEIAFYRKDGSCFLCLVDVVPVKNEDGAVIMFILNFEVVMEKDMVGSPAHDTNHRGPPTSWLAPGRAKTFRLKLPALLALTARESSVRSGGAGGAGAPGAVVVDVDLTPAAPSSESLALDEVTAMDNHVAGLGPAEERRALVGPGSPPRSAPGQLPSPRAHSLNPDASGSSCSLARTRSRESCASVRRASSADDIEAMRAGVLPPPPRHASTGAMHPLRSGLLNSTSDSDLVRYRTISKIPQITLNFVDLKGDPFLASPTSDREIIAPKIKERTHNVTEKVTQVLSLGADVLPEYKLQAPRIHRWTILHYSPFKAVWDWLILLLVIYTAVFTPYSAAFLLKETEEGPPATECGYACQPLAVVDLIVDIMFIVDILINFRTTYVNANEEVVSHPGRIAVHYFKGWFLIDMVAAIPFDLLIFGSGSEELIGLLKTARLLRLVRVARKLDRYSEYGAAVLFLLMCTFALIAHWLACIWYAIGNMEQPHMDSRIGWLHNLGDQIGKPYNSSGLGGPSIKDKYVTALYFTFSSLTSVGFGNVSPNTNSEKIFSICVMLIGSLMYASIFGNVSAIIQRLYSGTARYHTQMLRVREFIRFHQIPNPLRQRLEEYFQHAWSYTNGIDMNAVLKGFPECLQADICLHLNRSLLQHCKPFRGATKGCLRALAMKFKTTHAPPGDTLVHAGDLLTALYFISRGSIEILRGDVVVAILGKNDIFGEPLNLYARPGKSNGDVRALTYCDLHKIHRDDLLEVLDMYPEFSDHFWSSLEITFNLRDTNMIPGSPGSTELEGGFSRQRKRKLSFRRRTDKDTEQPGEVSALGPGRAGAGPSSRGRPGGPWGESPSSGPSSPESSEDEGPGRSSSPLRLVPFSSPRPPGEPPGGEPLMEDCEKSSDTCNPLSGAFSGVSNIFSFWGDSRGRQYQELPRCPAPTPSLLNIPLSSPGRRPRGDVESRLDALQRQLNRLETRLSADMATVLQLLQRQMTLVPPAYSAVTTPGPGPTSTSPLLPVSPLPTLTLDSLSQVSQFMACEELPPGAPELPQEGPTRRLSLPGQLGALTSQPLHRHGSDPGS

Target: hERG channel (Homo sapiens, UniProt Q12809)
Experiment: in vitro
Details: pH 7.4, fold selectivity for VMAT2 vs hERG, relative to inhibition of VMAT2 function

FCCOc1ccccc1CCN1CCN(CCc2ccccc2Cl)CC1 [Compound 15d, 1-(2-chlorophenethyl)-4-(2-(2-fluoroethoxy)phenethyl)piperazine dihydrochloride]
selectivity ratio: 60
